# From article PMC6149825, “PTP1B Inhibitors from the Entomogenous Fungi Isaria fumosorosea” (Molecules : A Journal of Synthetic Chemistry and Natural …, 2017)
# Molecular target: T1, PTP1B (Homo sapiens, UniProt P18031)
# T1 sequence (P18031 1-435): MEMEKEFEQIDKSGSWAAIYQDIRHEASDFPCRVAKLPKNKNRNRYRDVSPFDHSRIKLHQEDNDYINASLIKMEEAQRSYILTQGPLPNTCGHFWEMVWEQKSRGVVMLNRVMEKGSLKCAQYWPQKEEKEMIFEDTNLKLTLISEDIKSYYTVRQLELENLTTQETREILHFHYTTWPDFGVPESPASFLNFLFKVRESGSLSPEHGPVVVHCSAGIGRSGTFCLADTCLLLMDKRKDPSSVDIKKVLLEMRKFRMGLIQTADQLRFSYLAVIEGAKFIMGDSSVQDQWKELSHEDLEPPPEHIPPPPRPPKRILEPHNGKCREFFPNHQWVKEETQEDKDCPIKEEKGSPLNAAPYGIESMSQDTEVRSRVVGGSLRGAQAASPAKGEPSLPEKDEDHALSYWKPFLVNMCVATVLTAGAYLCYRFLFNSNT
# Assay: PTP1B inhibition assay (hydrolysis of p-nitrophenyl phosphate, 96-well plate)
# Details: read-out: PTP1B inhibitory activity IC50; in vitro; pNPP substrate; triplicate, three independent experiments
substance,measurement,value
Beauvericin [Compound 6],IC50,0.59 ± 0.15 µM
